Ab-91 heavy chain CDR variants: yeast mating affinities

The measurements come from Engelhart et al. 2022 (doi:10.1038/s41597-022-01779-4) through the FLAb antibody collection.

Target: peptide PDVDLGDISGINAS, taken from heptad repeat 2 (HR2) of SARS-CoV-2 spike.

Ab-91 is the parent antibody, in scFv form: VL, then three GGGGS repeats, then VH. The light chain is unchanged in all variants.
VL: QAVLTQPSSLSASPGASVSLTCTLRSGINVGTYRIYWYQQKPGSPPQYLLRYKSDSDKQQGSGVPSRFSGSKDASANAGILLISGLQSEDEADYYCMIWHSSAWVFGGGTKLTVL
VH: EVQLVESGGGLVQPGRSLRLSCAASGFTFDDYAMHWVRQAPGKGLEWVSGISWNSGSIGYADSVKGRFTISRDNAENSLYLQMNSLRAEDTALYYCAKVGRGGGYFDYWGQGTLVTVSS

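The parent was found by panning a naive human phage display library on the peptide. In library AAYL51, one, two or three CDR residues were substituted; doubles and triples were drawn at random. AlphaSeq pools MATa yeast showing the antibodies with MATalpha yeast showing the peptide. The frequency of each diploid, read from paired DNA barcodes, reflects how well the two displayed proteins bind. The ratio of observed to expected reads was calibrated, replicate by replicate, on BCL2-family standards whose Kd was known from biolayer interferometry. Mating was done three times.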

Each variant is given by its three heavy chain CDRs, as the data file delimits them; those of the parent are GFTFDDYAMH, GISWNSGSIGYADSVK, VGRGGGYFDY. The read-out is the apparent dissociation constant on a log10 scale (nM): the lower, the stronger. Replicates are averaged; those with no signal do not enter the mean. An entry "nd" has no value in the source: the pair was not observed among the diploids in that replicate. This suggests poor binding but is not conclusive. In this assay the parent's reference entry averaged 1.86; its copy inside this library read 0.88.

CDR-H1,CDR-H2,CDR-H3,"log10 Kd, replicates",mean log10 Kd (nM),empty controls
GFTFDDYAMH,GIRWNSGSIGYADSVK,VGRGGRYFFY,nd / nd / nd,nd,0/9
GFTPDDYAMH,DISRNSGSIGYADSVK,VGRGGGYFDY,5.50 / nd / nd,5.50,1/9 (4.63)
GFTFDDYAMH,GISWNSGSIGYKDSVK,VGRGGWYFGY,nd / nd / nd,nd,1/9 (4.33)
GFTFDDYAMH,GIPWNSGSNGYASSVK,VGRGGGYFDY,4.86 / 5.51 / 5.30,5.22,5/9 (4.92)
GFTFDDYAWH,GISWNSGSIGYADSVK,VGRGGGYQKY,nd / nd / nd,nd,0/9
GFTFDDYAMH,GWSWNSGSIGYAGSVQ,VGRGGGYFDY,nd / nd / nd,nd,0/9
GFCFDDYNMH,GISWNSGSIGYAGSVK,VGRGGGYFDY,nd / nd / nd,nd,0/9
GFTCDDYAMH,CISWNSGSIGQADSVK,VGRGGGYFDY,nd / nd / nd,nd,0/9
GFTFDDYAMH,GISWNSGSIGYADSVI,GGRGGGYFMY,4.96 / 5.59 / nd,5.27,5/9 (5.04)
VFTFDLYAMH,GTSWNSGSIGYADSVK,VGRGGGYFDY,nd / nd / nd,nd,0/9
GFTFDDYAMH,GISEMSGSIGYAYSVK,VGRGGGYFDY,4.78 / 7.02 / nd,5.90,6/9 (4.67)
GETFLDYAMH,GISWNSGSIGYADSVK,VGRGGGYSDY,4.31 / nd / nd,4.31,0/9
GFTFDDYAMH,GISWNSGSIGCADSVK,VGRVGGYFDY,nd / nd / nd,nd,0/9
GFTFDDYAMH,FILWNSGSIPYADSVK,VGRGGGYFDY,4.04 / nd / nd,4.04,4/9 (4.91)
GFTFDDIAMH,GISWNSGSIDYADSVK,VGRGGGYFDY,nd / nd / 3.97,3.97,0/9
GFTFEDYAMH,GISWNSGSIGKPDSVK,VGRGGGYFDY,nd / nd / nd,nd,0/9
TFTFDDYAMH,GISWNSGSIGYADSVK,VGLGGGYFDA,3.51 / 3.05 / 3.73,3.43,2/9 (4.40)
GFTFDDYAMH,GISWNSGSIGYADSVT,VGRGGGYIDY,4.68 / nd / nd,4.68,1/9 (4.47)
GFTFDDYAMH,GISWTSGSIGYADSVK,VGRGGGYFDY,nd / nd / nd,nd,2/9 (3.62)
GFTFDDYAML,GISWNSHSIGYADSVK,VGRGGGYYDY,nd / nd / nd,nd,0/9
GFTFDDYAMH,GIRWNSGSIEYADSVK,VGRGGNYFDY,4.38 / nd / nd,4.38,1/9 (4.52)
GFTFDDYAMH,GISWNSGSISYADSVK,VGCGGGYFDY,nd / nd / nd,nd,0/9
GFTFDDHAMH,GGSWNSGSIGYADSVA,VGRGGGYFDY,nd / nd / nd,nd,0/9
GFTFDDYAMH,GISWKSGSIGYADSVV,VGRGGGYFDY,4.84 / nd / 4.01,4.42,3/9 (3.84)
GFTFDDYAMH,NISWNSGSIGYADSVK,VGRGGGLFDY,5.00 / nd / nd,5.00,3/9 (5.13)
GFTFDDYAMG,GITWNSGSIGYADSVK,VGRGGGYFDY,nd / nd / nd,nd,0/9
GATFDDYAMH,GIGWNSGSIGYADSVD,VGRGGGYFDY,nd / nd / nd,nd,2/9 (3.57)
GFTFDDYAMT,GISWNSGSIGYADIVS,VGRGGGYFDY,nd / nd / 2.32,2.32,0/9
GFTFDDYAMH,GISWNSGSIGYADMVK,VGIGGGYFGY,3.86 / nd / nd,3.86,0/9
GFTFDDYIMH,GISWRSGSIGYADSPK,VGRGGGYFDY,nd / nd / nd,nd,0/9
GFTFDDYARH,GIMWNSGSIGYADSVK,VGRGGGYSDY,nd / nd / nd,nd,1/9 (3.61)
GFTFDRYAMH,GINWNSGSIGYADSVK,VGRGGGYFDA,1.03 / 1.01 / 0.43,0.82,2/9 (3.64)
GFTFDDYAMH,GISWTSGSIGYADSVK,VGRGGVYFDY,nd / nd / nd,nd,2/9 (4.13)
GFTGDDYAMH,GISWNEGSIDYADSVK,VGRGGGYFDY,nd / 4.66 / 3.86,4.26,2/9 (4.54)
DFTFDDYAMQ,GISWNSGSIGYQDSVK,VGRGGGYFDY,4.71 / nd / nd,4.71,2/9 (4.83)
GFMFDDYAMH,KISWNSGSIGYGDSVK,VGRGGGYFDY,nd / nd / 4.46,4.46,2/9 (5.62)
GFTFDDFAMH,GISWNSGSIGYADSVK,VGRGGGYFDY,nd / 2.17 / nd,2.17,0/9

The last 5 entries again:

CDR-H1	CDR-H2	CDR-H3	log10 Kd, replicates	mean log10 Kd (nM)	empty controls
GFTFDDYAMH	GISWTSGSIGYADSVK	VGRGGVYFDY	nd / nd / nd	nd	2/9 (4.13)
GFTGDDYAMH	GISWNEGSIDYADSVK	VGRGGGYFDY	nd / 4.66 / 3.86	4.26	2/9 (4.54)
DFTFDDYAMQ	GISWNSGSIGYQDSVK	VGRGGGYFDY	4.71 / nd / nd	4.71	2/9 (4.83)
GFMFDDYAMH	KISWNSGSIGYGDSVK	VGRGGGYFDY	nd / nd / 4.46	4.46	2/9 (5.62)
GFTFDDFAMH	GISWNSGSIGYADSVK	VGRGGGYFDY	nd / 2.17 / nd	2.17	0/9

Nonspecific signal, from three strains lacking the peptide, appeared in 21% of pairings of library AAYL51, centred on 4.54 (5% of these signals below 3.26); values are not corrected for it. For each scFv, signals with the empty controls are counted beside the result, with their mean in brackets.